# In PubChem BioAssay AID588621 (Sanford-Burnham Center for Chemical Genomics, 2011):
# Sequences of proteins named here, by UniProt entry; tags and fusion partners are left off.
# UniProt P54829, whole entry: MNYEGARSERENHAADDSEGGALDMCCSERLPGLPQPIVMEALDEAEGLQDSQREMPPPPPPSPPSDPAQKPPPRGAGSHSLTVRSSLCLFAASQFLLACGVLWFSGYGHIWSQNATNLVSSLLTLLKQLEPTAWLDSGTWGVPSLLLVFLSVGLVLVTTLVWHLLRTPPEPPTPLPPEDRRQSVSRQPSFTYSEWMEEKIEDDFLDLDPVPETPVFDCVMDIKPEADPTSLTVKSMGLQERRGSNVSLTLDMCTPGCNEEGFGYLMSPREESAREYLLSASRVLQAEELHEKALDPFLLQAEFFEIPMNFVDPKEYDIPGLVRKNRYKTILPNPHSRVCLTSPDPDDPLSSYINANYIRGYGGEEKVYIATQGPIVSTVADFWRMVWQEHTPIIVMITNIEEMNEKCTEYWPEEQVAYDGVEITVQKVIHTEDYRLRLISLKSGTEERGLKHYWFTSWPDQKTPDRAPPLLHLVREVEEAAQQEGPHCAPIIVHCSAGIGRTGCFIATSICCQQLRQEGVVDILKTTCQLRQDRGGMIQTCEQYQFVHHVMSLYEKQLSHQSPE
# This is a selection; strong and weak results do not stand in their true shares. Activity calls are given as the source filed them.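 How the source made its calls: active means inhibition at 20 µM, scaled per plate between control wells, above about 37% (limit read from the data); inactive means the rest.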
# Target: Tyrosine-protein phosphatase non-receptor type 5 (Homo sapiens) (UniProt P54829)
# Assay: inhibition of human PTPN5 enzyme activity – biochemical, fluorescence intensity, uHTS, primary screen (AID 588621);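 further: 0% = DMSO with enzyme and substrate and 100% = substrate only without enzyme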
# Conditions: recombinant STEP, OMFP fluorogenic substrate, at 20 µM, active compounds read high
# Outline: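 Measure: Control-normalized % inhibition with plate pattern correction | Test system: STEP phosphatase, cell-free reaction | Medium: pH 6.0 Bis-Tris with DTT and Tween 20 | Technique: Fluorescence, 480/540 nm | Times: Reaction 20 min, ambient temperature | Doses: Single compound dose of 20 µM, 1% DMSO final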
row,SMILES,inhibition
1,COc1cccc(C(c2nnnn2C(C)(C)C)N2CCC(n3c(=O)[nH]c4ccccc43)CC2)c1OC (stereo not given),inactive: 2.3%
2,N/C(=N\O)c1c(N)no[n+]1[O-],inactive: -2.7%
3,O=C(OC1CN2CCC1CC2)C1c2ccccc2C=Cc2ccccc21 (stereo not given),inactive: -5.1%
4,O=c1[nH]c2ccccc2n1C1CCN(C(c2cccs2)c2nnnn2C2CCCC2)CC1 (stereo not given),inactive: 4.6%
5,CCCCn1nnnc1C(c1cccc(OC)c1OC)N1CCC(n2c(=O)[nH]c3ccccc32)CC1 (stereo not given),inactive: 3.6%
6,CCCCn1nnnc1C(c1ccccc1)N1CCC(n2c(=O)[nH]c3ccccc32)CC1 (stereo not given),inactive: 2.4%
7,COc1cc(C(=O)NCC2(N3CCOCC3)CCCCC2)cc(OC)c1C,inactive: -2.3%
8,O=C(NCC1(N2CCOCC2)CCCCC1)c1cc(Br)ccc1Cl,inactive: 1.2%
9,O=c1[nH]c2ccccc2n1C1CCN(C(c2cccs2)c2nnnn2C2CCCCC2)CC1 (stereo not given),inactive: -2.8%
10,COc1ccc(C(=O)NCC2(N3CCOCC3)CCCCC2)cc1OC,inactive: -0.3%
11,O=c1[nH]c2ccccc2n1C1CCN(C(c2ccnc3ccccc23)c2nnnn2C2CCCC2)CC1 (stereo not given),inactive: 1.8%
12,CN(C)C1(CNC(=O)c2cccc(C#N)c2)CCCCC1,inactive: -1.6%
13,c1ccc(CN2CCC(Nc3ccccc3)CC2)cc1,inactive: 1.5%
14,O=c1[nH]c2ccccc2n1C1CCN(C(c2ccccc2)c2nnnn2C2CCCC2)CC1 (stereo not given),inactive: -1.4%
15,CCCN1CCC(Nc2cc(OC)cc(OC)c2)CC1,inactive: -3.8%
16,Cc1cc(N(CCCl)CCCl)ccc1C=O,inactive: 0.2%
17,CC(C)(C)n1nnnc1C(c1cccc2ccccc12)N1CCC(n2c(=O)[nH]c3ccccc32)CC1 (stereo not given),inactive: 1.5%
18,N#Cc1ccc(C(=O)NCC2(N3CCCCC3)CCCCC2)cc1,inactive: -1.1%
19,CC(C)(C)OC(=O)N1CCC(N(C(=O)c2ccccc2)c2ccc(Cl)cc2)CC1,inactive: -0.9%
20,O=C(NCC1(N2CCCCC2)CCCCC1)c1cccc(C(F)(F)F)c1,inactive: -3.1%
21,O=C(NCC1(N2CCOCC2)CCCCC1)c1cc(=O)[nH]c2ccccc12,inactive: -0.4%
22,COc1cc(C(=O)NCC2(N3CCCCC3)CCCCC2)ccc1OC(F)F,inactive: 1.2%
23,COc1ccc(NC2CCN(C(=O)OC(C)(C)C)CC2)cc1,inactive: 4.5%
24,CC(C)c1ccc(C(=O)NCC2(N3CCOCC3)CCCCC2)cc1,inactive: -0.5%
25,CN1CCN(CCOC(=O)C(O)(c2ccccc2)c2ccccc2)CC1,inactive: -3.8%
26,CCCCn1nnnc1C(c1cccc2ccccc12)N1CCC(n2c(=O)[nH]c3ccccc32)CC1 (stereo not given),inactive: 3%
27,CC(C)(C)n1nnnc1C(c1ccccc1OC(F)(F)F)N1CCC(n2c(=O)[nH]c3ccccc32)CC1 (stereo not given),inactive: 3.5%

row,SMILES,inhibition
1,O=C(NCC1(N2CCCCC2)CCCCC1)c1ccc(OC(F)F)cc1,inactive: -1.5%
2,CCN1CCC(Nc2ccc(Cl)cc2)CC1,inactive: -7.4%
3,O=c1[nH]c2ccccc2n1C1CCN(C(c2ccccc2OC(F)(F)F)c2nnnn2C2CCCC2)CC1 (stereo not given),inactive: 0.9%
4,N#CC1(Nc2ccccc2)CCN(CCc2ccccc2)CC1,inactive: -2.9%
5,CSc1ccc(C(=O)NCC2(N3CCOCC3)CCCCC2)cc1,inactive: -1.5%
6,O=C(NCC1(N2CCCCC2)CCCCC1)c1cccc([N+](=O)[O-])c1,inactive: 0.6%
7,CN1CCC(Nc2cccc(F)c2)CC1,inactive: -1.3%
8,O=C(NCC1(N2CCCCC2)CCCCC1)c1cncc(Br)c1,inactive: -0.3%
9,COc1ccc(C(c2nnnn2C2CCCC2)N2CCC(n3c(=O)[nH]c4ccccc43)CC2)cc1 (stereo not given),inactive: 0.2%
10,Cc1ccc(C(=O)NCC2(N(C)C)CCCCC2)o1,inactive: -0.6%
11,CCCOc1ccc(C(=O)NCC2(N(C)C)CCCCC2)cc1OC,inactive: -2%
12,CC(C)c1ccc(NC2CCN(C(=O)OC(C)(C)C)CC2)cc1,inactive: 0.2%
13,CCCCn1nnnc1C(c1ccccc1OC(F)(F)F)N1CCC(n2c(=O)[nH]c3ccccc32)CC1 (stereo not given),inactive: -0.1%
14,COc1ccc(CN(CCCl)CCCl)cc1Cl,inactive: -3.5%
15,CN(C)c1cccc(C(=O)NCC2(N3CCCCC3)CCCCC2)c1,inactive: -2.6%
16,COc1cc(OC)c(C(=O)NCC2(N(C)C)CCCCC2)cc1OC,inactive: -1.1%
17,CCC(c1nnnn1C(C)(C)C)N1CCC(n2c(=O)[nH]c3ccccc32)CC1 (stereo not given),inactive: 0.5%
18,O=C(NCC1(N2CCOCC2)CCCCC1)c1cc(F)c(F)cc1Cl,inactive: 1.4%
19,CCCCn1nnnc1C(c1ccnc2ccccc12)N1CCC(n2c(=O)[nH]c3ccccc32)CC1 (stereo not given),inactive: 1.7%
20,O=C(NCC1(N2CCCCC2)CCCCC1)c1ccc(Cl)nc1,inactive: 1.2%
21,O=c1[nH]c2ccccc2n1C1CCN(C(c2ccccc2OC(F)(F)F)c2nnnn2C2CCCCC2)CC1 (stereo not given),inactive: 0.6%
22,Cc1cc(C)cc(N(C(=O)c2ccccc2)C2CCN(C(=O)OC(C)(C)C)CC2)c1,inactive: 0.6%
23,O=C(NCC1(N2CCOCC2)CCCCC1)c1cc2ccccc2o1,inactive: -5.9%
24,N#CC1(Nc2ccccc2)CCN(Cc2ccccc2)CC1,inactive: 7.2%
25,O=C(NCC1(N2CCCCC2)CCCCC1)c1ccc(Cl)s1,inactive: 1%
26,O=c1[nH]c2ccccc2n1C1CCN(C(c2cc3ccccc3o2)c2nnnn2C2CCCCC2)CC1 (stereo not given),inactive: 3%
27,O=C(OC1CN2CCC1CC2)C1c2ccccc2Oc2ccccc21 (stereo not given),inactive: 1.9%

row,SMILES,inhibition
1,COc1ccc(Cl)cc1C(=O)NCC1(N2CCOCC2)CCCCC1,inactive: -2.9%
2,CCOC(=O)N1CCC(Nc2ccc(OC)cc2)CC1,inactive: 0.1%
3,CCCCn1nnnc1C(c1ccc(OC)cc1)N1CCC(n2c(=O)[nH]c3ccccc32)CC1 (stereo not given),inactive: 3.6%
4,COc1ccc(C(=O)NCC2(N3CCCCC3)CCCCC2)cc1,inactive: 5.6%
5,COc1ccc(C(=O)NCC2(N3CCCCC3)CCCCC2)c(OC)c1OC,inactive: -0.1%
6,CC(C)(C)OC(=O)N1CCC(N(C(=O)c2ccccc2)c2ccc(F)cc2)CC1,inactive: 1.1%
7,CCC(c1nnnn1C1CCCC1)N1CCC(n2c(=O)[nH]c3ccccc32)CC1 (stereo not given),inactive: -0.3%
8,O=C(NCC1(N2CCCCC2)CCCCC1)c1ccc(=O)[nH]c1,inactive: -2.1%
9,CCCCn1nnnc1C(CC)N1CCC(n2c(=O)[nH]c3ccccc32)CC1 (stereo not given),inactive: 3%
10,O=C(NCC1(N2CCCCC2)CCCCC1)c1cccs1,inactive: -2.3%
11,CCCCn1nnnc1C(c1cccs1)N1CCC(n2c(=O)[nH]c3ccccc32)CC1 (stereo not given),inactive: -0.7%
12,CSc1ccccc1C(=O)NCC1(N2CCCCC2)CCCCC1,inactive: 1.7%
13,Cc1cccc(NC2(C#N)CCN(Cc3ccccc3)CC2)c1,inactive: 4.1%
14,O=c1[nH]c2ccccc2n1C1CCN(C(c2ccccc2)c2nnnn2C2CCCCC2)CC1 (stereo not given),inactive: 1.2%
15,CCOC(=O)N1CCC(Nc2cccc(C)c2)CC1,inactive: -1.8%
16,COc1cc(C(=O)NCC2(N(C)C)CCCCC2)ccc1OC(F)F,inactive: 0.9%
17,O=c1[nH]c2ccccc2n1C1CCN(C(c2cccc3ccccc23)c2nnnn2C2CCCC2)CC1 (stereo not given),inactive: 1.5%
18,CC(C)(C)n1nnnc1C(c1ccccc1)N1CCC(n2c(=O)[nH]c3ccccc32)CC1 (stereo not given),inactive: 1.1%
19,O=C1CCN(Cc2ccccc2)CC1,inactive: -5%
20,CCOc1ccc(C)cc1CN(CCCl)CCCl,inactive: 0.1%
21,CCCCOc1ccc(C(=O)NCC2(N3CCOCC3)CCCCC2)cc1,inactive: 7.4%
22,O=P1(N(CCCl)CCCl)SCCCS1,inactive: -1.1%
23,CCCCn1nnnc1C(c1cc2ccccc2o1)N1CCC(n2c(=O)[nH]c3ccccc32)CC1 (stereo not given),inactive: -1.2%
24,O=C(NCC1(N2CCCCC2)CCCCC1)c1ccc(F)cc1,inactive: 1.7%
25,CCOC(=O)N1CCC(Nc2ccc(F)cc2)CC1,inactive: -2.4%
26,COc1ccc(NC2CCN(CCc3ccccc3)CC2)c(OC)c1,inactive: -0.7%
